Measurements published in patent US11464840B2, “Universal non-classical MHC I vaccines: HLA-E-restricted antigenic peptides as universal vaccines to treat allergy, inflammation, autoimmune and infectious diseases, and cancers” (priority 2019, dated 2022).

System: HLA-E
Assay: ELISA of renatured HLA-E binding to biotinylated leader peptide (C3N)
Design: species or system human
Protocol: FIG. 2. Renaturation and restoration of conformation of HLA-E by leader peptides and β2m. ELISA for the interaction of denatured HLA-E or covalent HLA-E-β2 microglobulin fusion protein with biotinylated HLA-A2 leader peptide. 10 μg of denatured recombinant HLAE-β2 microglobulin fusion protein, or denatured HLA-E incubated with biotinylated A2 leader peptide (SEQ ID NO: 50, […]) with or without 10 μg β2 microglobulin in 50 μl buffer A (0.5 mM-Tris pH at 6.6) at 18° C. for two days. The complexes were then added into anti-HLA E antibody coated plate (2 μg/ml) and incubated for 1 hour. After washing three times with 1% BSA PBS, HRP-Avidin (Biolegend #405103, 1:1000) was used to detect bound biotinylated leader peptide.
A conformation capture of canonical/non-canonical peptide (C3N) method to HLA-E is designed to test predicted HLA-E binding peptides. HLA-E canonical and nominal peptides predicted from the python algorithm of Igepredict program and any 9 to 12-mer made collinearly with an overlapping IgE sequence can be tested by a binding assay. As illustrated herein, human HLA-E and β2m fusion construct can be made and collinearly expressed as a fusion protein as shown in FIG. 2. […]

Substance: β2m: recombinant human beta 2 microglobulin added externally
- peptide binding enhancement compared to HLA-E heavy chain alone: 20%
